Structures are written as SMILES. pIC50: −log10 of the molar value.

Protein sequences, listed by entry. Tags and fused reporters are not part of them.
UniProt Q9NYA1, whole entry: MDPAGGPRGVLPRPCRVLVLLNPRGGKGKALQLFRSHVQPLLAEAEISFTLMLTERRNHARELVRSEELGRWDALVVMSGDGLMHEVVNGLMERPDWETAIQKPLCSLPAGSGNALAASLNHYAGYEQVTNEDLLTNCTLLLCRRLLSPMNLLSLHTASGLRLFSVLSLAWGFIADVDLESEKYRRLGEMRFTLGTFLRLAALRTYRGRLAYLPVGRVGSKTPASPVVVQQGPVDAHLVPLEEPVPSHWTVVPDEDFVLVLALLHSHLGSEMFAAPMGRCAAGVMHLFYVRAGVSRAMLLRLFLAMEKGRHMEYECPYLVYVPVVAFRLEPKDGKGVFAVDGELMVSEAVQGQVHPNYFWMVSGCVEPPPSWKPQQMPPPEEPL

The values that follow come from ChEMBL document CHEMBL2406911, “Structure guided design of a series of sphingosine kinase (SphK) inhibitors” (Bioorg Med Chem Lett, 2013).

This test addresses Sphingosine kinase 1 (Homo sapiens, UniProt Q9NYA1).
`OC[C@@H]1C[C@H](O)CCN1CCc1ccc(Nc2nc(-c3ccc4ccccc4c3)cs2)cc1` gave a negative logarithm of the IC50 (pIC50) of 6.35.

Compound `OC[C@H]1C[C@@H](O)CCN1CCc1ccc(Nc2nc(-c3ccc4ccccc4c3)cs2)cc1` gave a pIC50 of 7.70. This pIC50 is 1.35 log units higher than that of the compound before.

Compound `OC[C@H]1C[C@H](O)CCN1CCc1ccc(Nc2nc(-c3ccc4ccccc4c3)cs2)cc1` had a pIC50 of 6.66.
